The values below are quoted from earlier work in US20200297696A1, “P38 INHIBITORS FOR THE TREATMENT OF FSHD” (Saint Louis University, priority 2017, published 2020).

The chains behind the UniProt entries cited, without tags or fusion partners.
UniProt Q16539, whole entry: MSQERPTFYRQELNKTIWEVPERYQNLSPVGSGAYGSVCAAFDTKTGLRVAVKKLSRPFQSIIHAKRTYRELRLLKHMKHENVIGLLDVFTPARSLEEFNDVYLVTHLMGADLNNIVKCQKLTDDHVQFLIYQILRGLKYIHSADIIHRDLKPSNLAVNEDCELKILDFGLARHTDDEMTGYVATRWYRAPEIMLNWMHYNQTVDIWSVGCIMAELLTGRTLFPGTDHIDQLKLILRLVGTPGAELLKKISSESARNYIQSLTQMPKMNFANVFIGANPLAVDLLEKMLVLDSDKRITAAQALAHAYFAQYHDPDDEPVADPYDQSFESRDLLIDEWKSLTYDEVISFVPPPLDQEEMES

This data set concerns the target p38α (Homo sapiens, UniProt Q16539). The note with it: fold selective over p38β; cited from earlier work.

The structures appear in SMILES notation.

As to `Cn1c(=O)c(Oc2ccc(F)cc2F)cc2cnc(NC(CCO)CCO)nc21` [Pamapimod], the “Selectivity for p38α over p38β” value is listed as “p38α, 34X selective over p38β”.
